# Measured values taken from patent US9162991B2 (University of Ottawa, priority 2007, dated 2015).
# Test: Solubility in the solvent mixture used for the enzymatic assay
# Conditions: 5% DMF/H2O solvent mixture; compared with benzotriazolyl amide inhibitors
row,SMILES,solubility (relative)
1,"Nc1ccc(/C=C/C(=O)c2cccnc2)cc1 [Compound 30r, (E)-3-(4-aminophenyl)-1-(pyridin-3-yl)prop-2-en-1-one]",relatively more soluble
2,"CC(=O)Nc1ccc(/C=C/C(=O)c2cccnc2)cc1 [Compound 30t, (E)-3-(4-acetylaminophenyl)-1-(pyridin-3-yl)prop-2-en-1-one]",relatively more soluble
3,"O=C(/C=C/c1ccc([N+](=O)[O-])cc1)c1cccnc1 [Compound 30a, (E)-3-(4-nitrophenyl)-1-(pyridin-3-yl)prop-2-en-1-one]",relatively more soluble
